Measured values: ChEMBL document CHEMBL6092202, “4-Anilinoquinazoline Derivatives as the First Potent NOD1-RIPK2 Signaling Pathway Inhibitors at the Nanomolar Range” (J Med Chem, 2024)

By UniProt entry, the sequences of proteins in these tests, tags left out. Where a name states a change or a piece, a line headed by the entry shows the natural chain unless it says otherwise.
UniProt P37173, whole entry: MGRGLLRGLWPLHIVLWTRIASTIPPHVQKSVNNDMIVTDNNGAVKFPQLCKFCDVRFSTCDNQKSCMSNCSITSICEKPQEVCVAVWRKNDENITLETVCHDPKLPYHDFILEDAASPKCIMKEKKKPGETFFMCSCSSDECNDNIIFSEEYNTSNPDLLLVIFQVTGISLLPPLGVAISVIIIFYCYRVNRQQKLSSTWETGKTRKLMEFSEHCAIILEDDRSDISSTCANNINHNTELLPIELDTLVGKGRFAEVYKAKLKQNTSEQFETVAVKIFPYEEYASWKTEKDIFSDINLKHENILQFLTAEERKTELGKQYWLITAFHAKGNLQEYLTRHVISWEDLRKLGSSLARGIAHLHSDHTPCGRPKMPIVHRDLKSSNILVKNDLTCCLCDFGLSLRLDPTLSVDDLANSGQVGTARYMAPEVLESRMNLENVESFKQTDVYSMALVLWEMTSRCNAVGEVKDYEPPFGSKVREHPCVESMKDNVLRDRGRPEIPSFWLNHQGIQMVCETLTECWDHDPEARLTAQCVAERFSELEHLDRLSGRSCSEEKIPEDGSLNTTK
UniProt P11362, whole entry, looked up: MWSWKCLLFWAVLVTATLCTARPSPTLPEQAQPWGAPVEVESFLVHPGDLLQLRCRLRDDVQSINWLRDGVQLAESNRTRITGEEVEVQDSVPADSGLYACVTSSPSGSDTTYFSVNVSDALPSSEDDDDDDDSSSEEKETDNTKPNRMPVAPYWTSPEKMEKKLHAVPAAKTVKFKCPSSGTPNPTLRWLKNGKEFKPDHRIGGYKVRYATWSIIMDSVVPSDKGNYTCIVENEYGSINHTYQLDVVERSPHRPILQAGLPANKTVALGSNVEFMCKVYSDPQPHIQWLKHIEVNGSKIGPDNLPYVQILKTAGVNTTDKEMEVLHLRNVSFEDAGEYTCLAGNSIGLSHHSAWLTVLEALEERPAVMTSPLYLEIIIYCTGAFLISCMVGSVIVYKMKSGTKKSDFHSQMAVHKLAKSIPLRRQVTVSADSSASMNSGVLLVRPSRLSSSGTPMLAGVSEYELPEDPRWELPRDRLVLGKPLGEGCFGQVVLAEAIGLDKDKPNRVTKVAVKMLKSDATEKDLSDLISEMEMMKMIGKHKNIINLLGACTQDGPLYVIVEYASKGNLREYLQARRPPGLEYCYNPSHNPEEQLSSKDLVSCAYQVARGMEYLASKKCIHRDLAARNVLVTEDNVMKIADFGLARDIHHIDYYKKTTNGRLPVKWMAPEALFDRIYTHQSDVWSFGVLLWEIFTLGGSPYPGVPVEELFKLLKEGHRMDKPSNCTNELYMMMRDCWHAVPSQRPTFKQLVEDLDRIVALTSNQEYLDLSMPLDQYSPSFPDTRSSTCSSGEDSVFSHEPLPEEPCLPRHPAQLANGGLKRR
UniProt P08069, whole entry, looked up: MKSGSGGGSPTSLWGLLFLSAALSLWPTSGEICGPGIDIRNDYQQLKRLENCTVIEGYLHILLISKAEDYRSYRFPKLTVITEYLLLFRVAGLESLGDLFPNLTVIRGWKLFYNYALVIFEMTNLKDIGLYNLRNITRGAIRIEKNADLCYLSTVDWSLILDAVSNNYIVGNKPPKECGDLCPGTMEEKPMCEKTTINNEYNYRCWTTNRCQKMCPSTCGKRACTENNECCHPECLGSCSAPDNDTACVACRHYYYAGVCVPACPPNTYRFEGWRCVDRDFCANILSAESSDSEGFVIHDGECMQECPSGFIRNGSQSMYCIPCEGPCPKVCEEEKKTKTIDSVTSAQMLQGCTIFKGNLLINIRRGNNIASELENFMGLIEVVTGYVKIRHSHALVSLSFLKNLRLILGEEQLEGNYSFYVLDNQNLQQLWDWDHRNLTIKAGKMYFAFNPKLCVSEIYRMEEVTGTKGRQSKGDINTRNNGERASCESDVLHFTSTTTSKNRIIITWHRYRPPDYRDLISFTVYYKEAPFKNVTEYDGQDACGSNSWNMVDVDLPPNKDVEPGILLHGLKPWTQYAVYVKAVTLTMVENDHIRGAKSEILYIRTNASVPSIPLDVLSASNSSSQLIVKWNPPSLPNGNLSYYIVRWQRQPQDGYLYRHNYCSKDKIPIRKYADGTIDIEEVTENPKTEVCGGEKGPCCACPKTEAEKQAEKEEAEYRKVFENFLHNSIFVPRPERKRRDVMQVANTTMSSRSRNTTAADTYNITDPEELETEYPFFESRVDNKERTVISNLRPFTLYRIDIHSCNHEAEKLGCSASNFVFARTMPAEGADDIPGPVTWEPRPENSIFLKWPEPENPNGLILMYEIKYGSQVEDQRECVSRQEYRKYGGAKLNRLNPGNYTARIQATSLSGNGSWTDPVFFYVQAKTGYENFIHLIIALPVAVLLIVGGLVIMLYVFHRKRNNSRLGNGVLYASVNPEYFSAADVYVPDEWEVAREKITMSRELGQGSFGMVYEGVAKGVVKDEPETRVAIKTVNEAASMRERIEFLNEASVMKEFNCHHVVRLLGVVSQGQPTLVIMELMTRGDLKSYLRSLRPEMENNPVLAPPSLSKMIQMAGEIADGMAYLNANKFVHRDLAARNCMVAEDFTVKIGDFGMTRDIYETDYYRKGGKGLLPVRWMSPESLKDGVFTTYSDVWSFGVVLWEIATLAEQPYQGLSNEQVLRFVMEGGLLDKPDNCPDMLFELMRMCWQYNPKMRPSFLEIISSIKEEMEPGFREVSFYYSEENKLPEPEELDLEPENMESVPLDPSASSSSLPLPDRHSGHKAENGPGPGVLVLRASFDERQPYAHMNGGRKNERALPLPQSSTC
UniProt Q15303, whole entry: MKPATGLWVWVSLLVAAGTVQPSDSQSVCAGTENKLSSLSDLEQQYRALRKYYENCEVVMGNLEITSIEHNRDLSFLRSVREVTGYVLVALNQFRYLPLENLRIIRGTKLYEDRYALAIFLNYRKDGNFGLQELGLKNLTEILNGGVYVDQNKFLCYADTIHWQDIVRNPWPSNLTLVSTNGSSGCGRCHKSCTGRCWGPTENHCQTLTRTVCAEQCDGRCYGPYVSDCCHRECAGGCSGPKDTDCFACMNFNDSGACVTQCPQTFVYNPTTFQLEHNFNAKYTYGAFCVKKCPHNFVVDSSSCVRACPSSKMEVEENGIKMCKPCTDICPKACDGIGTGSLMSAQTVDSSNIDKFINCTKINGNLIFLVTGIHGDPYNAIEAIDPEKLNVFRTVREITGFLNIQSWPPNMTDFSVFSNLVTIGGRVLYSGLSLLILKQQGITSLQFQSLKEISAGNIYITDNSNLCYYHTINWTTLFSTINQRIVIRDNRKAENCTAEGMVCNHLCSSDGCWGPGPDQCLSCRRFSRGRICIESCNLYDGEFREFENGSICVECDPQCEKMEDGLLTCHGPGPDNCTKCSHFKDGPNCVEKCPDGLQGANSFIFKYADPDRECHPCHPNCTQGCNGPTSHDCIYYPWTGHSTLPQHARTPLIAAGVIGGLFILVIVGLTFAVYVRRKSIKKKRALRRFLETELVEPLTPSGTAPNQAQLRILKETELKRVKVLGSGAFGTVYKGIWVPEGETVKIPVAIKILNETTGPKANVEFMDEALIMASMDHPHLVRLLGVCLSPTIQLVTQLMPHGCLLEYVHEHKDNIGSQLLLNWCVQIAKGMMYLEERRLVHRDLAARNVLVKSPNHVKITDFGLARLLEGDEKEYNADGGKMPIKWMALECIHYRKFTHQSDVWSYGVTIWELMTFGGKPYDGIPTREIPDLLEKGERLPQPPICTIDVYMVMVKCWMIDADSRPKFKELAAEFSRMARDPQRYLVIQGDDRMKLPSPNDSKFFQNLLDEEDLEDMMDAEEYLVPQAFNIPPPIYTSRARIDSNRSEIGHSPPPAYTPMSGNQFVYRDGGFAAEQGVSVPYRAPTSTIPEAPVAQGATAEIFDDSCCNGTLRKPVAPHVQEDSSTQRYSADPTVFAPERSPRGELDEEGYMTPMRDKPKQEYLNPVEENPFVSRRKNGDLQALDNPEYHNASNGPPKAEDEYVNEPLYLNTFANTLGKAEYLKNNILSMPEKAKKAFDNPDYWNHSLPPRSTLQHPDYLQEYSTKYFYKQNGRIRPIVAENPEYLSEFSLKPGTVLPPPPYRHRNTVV
UniProt Q9HCP0: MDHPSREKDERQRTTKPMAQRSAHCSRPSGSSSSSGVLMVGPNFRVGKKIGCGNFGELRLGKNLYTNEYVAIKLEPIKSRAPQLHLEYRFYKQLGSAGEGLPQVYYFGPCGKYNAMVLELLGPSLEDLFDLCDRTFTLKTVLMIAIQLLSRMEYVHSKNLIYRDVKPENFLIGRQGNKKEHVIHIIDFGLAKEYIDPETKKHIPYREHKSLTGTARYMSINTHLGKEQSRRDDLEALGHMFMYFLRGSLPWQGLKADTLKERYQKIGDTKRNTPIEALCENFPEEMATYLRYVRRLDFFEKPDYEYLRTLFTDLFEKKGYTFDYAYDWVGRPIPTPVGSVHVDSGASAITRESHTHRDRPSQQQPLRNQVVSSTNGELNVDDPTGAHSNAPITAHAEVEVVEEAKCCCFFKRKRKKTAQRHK
UniProt P68400, whole entry, looked up: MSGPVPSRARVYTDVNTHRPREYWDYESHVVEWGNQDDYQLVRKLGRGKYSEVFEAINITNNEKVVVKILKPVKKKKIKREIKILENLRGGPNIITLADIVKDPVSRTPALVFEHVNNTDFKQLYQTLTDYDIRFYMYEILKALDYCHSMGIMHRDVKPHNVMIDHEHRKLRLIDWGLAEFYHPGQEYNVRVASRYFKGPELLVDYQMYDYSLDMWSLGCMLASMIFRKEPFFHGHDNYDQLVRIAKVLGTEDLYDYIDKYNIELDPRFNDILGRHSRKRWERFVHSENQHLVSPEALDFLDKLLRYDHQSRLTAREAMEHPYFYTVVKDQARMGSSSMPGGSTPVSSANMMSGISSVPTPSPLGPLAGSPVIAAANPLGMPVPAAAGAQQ
UniProt P31749: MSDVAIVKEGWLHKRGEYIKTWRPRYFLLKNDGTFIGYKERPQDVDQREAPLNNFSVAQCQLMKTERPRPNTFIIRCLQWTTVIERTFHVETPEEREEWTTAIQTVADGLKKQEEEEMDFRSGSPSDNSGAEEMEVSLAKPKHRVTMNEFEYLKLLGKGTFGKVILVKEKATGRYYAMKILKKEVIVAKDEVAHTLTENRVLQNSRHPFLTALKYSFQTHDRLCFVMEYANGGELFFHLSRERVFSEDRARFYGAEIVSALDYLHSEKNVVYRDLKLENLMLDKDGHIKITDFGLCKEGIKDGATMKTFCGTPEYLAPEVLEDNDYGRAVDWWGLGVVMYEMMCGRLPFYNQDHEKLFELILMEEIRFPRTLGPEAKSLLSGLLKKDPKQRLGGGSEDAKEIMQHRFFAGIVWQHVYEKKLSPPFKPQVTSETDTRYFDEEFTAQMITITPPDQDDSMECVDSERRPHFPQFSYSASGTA
UniProt Q16539, whole entry: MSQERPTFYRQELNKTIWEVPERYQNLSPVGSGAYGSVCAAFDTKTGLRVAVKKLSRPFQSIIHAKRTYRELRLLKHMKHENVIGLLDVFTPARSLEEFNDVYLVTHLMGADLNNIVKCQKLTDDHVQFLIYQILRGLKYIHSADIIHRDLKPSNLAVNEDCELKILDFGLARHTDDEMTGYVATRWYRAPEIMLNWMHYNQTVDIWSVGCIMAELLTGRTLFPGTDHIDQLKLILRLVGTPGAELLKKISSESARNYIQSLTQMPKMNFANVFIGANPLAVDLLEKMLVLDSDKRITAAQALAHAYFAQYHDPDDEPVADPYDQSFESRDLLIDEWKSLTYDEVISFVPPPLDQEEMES
UniProt Q13153, whole entry, looked up: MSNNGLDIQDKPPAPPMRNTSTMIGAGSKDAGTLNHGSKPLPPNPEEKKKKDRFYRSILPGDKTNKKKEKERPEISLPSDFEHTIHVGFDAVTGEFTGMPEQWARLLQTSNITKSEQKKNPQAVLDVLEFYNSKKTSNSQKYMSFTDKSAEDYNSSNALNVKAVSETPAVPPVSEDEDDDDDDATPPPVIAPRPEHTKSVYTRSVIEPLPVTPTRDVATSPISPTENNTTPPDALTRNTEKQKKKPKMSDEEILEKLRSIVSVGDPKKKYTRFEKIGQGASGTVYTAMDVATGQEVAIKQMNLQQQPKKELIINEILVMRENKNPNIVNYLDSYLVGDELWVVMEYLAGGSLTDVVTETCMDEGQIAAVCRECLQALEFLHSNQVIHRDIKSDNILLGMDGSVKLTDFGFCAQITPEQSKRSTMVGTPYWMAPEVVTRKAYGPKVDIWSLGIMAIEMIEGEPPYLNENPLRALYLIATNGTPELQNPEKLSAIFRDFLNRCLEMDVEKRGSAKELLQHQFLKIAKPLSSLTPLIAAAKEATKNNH
UniProt P60953, whole entry, looked up: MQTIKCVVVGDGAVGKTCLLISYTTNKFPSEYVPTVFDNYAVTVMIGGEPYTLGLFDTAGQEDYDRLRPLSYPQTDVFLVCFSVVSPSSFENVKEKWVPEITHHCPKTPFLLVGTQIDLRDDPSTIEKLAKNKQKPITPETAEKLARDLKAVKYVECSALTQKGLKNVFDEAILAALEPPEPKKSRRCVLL

How the values were obtained:
[1] = target: Mitogen-activated protein kinase kinase kinase 20 (Homo sapiens) (UniProt Q9NYL2); assay: Inhibition of human ZAK assessed as residual activity at 1 uM relative to control
[2] = target: TGF-beta receptor type-2 (Homo sapiens) (UniProt P37173); assay: Inhibition of human TGFbetaR2 assessed as residual activity at 1 uM relative to control
[3] = target: TAK1/TAB1 (Homo sapiens) (UniProt Q15750+O43318); assay: Inhibition of human TAK1-TAB1 assessed as residual activity at 1 uM relative to control; format: protein-complex assay
[4] = species on record: Homo sapiens; assay: Inhibition of human MLK2 assessed as residual activity at 1 uM relative to control
[5] = target: Interleukin-1 receptor-associated kinase 4 (Homo sapiens) (UniProt Q9NWZ3); assay: Inhibition of human IRAK4 assessed as residual activity at 1 uM relative to control
[6] = target: Activin receptor type-1B (Homo sapiens) (UniProt P36896); assay: Inhibition of human ALK4 assessed as residual activity at 1 uM relative to control
[7] = target: Activin receptor type-1 (Homo sapiens) (UniProt Q04771); assay: Inhibition of human ALK2 assessed as residual activity at 1 uM relative to control
[8] = target: Tyrosine-protein kinase SYK (Homo sapiens) (UniProt P43405); assay: Inhibition of human SYK assessed as residual activity at 1 uM relative to control
[9] = target: Tyrosine-protein kinase Lck (Homo sapiens) (UniProt P06239); assay: Inhibition of human LCK assessed as residual activity at 1 uM relative to control
[10] = target: Tyrosine-protein kinase JAK3 (Homo sapiens) (UniProt P52333); assay: Inhibition of human JACK3 assessed as residual activity at 1 uM relative to control
[11] = target: Fibroblast growth factor receptor 1 (Homo sapiens) (UniProt P11362); assay: Inhibition of human FGFR1 assessed as residual activity at 1 uM relative to control
[12] = target: Platelet-derived growth factor receptor beta (Homo sapiens) (UniProt P09619); assay: Inhibition of human PDGFRbeta assessed as residual activity at 1 uM relative to control
[13] = target: Platelet-derived growth factor receptor alpha (Homo sapiens) (UniProt P16234); assay: Inhibition of human PDGFRalpha assessed as residual activity at 1 uM relative to control
[14] = target: Insulin receptor (Homo sapiens) (UniProt P06213); assay: Inhibition of human INSR assessed as residual activity at 1 uM relative to control
[15] = target: Insulin-like growth factor 1 receptor (Homo sapiens) (UniProt P08069); assay: Inhibition of human IGF1R assessed as residual activity at 1 uM relative to control
[16] = target: Receptor tyrosine-protein kinase erbB-4 (Homo sapiens) (UniProt Q15303); assay: Inhibition of human HER4 assessed as residual activity at 1 uM relative to control
[17] = target: Receptor tyrosine-protein kinase erbB-2 (Homo sapiens) (UniProt P04626); assay: Inhibition of human HER2 assessed as residual activity at 1 uM relative to control
[18] = target: Casein kinase I isoform gamma-1 (Homo sapiens) (UniProt Q9HCP0); assay: Inhibition of human CK1gamma1 assessed as residual activity at 1 uM relative to control
[19] = target: Casein kinase I isoform alpha (Homo sapiens) (UniProt P48729); assay: Inhibition of human CK1alpha1 assessed as residual activity at 1 uM relative to control
[20] = target: Inhibitor of nuclear factor kappa-B kinase subunit beta (Homo sapiens) (UniProt O14920); assay: Inhibition of human IKKb assessed as residual activity at 1 uM relative to control
[21] = target: Casein kinase II subunit alpha (Homo sapiens) (UniProt P68400); assay: Inhibition of human CK2a1 assessed as residual activity at 1 uM relative to control
[22] = target: Aurora kinase A (Homo sapiens) (UniProt O14965); assay: Inhibition of human Aurora A assessed as residual activity at 1 uM relative to control
[23] = target: Rho-associated protein kinase 1 (Homo sapiens) (UniProt Q13464); assay: Inhibition of human ROCK1 assessed as residual activity at 1 uM relative to control
[24] = target: Protein kinase C alpha type (Homo sapiens) (UniProt P17252); assay: Inhibition of human PKCalpha assessed as residual activity at 1 uM relative to control
[25] = target: RAC-alpha serine/threonine-protein kinase (Homo sapiens) (UniProt P31749); assay: Inhibition of human AKT1 assessed as residual activity at 1 uM relative to control
[26] = target: Mitogen-activated protein kinase 14 (Homo sapiens) (UniProt Q16539); assay: Inhibition of human p38alpha assessed as residual activity at 1 uM relative to control
[27] = target: Glycogen synthase kinase-3 beta (Homo sapiens) (UniProt P49841); assay: Inhibition of human GSK3beta assessed as residual activity at 1 uM relative to control
[28] = target: Cyclin-dependent kinase 2/cyclin E1 (Homo sapiens) (UniProt P24864+P24941); assay: Inhibition of human CDK2/Cyclin E1 assessed as residual activity at 1 uM relative to control; format: protein-complex assay
[29] = target: PAK 1/CDC42 (Homo sapiens) (UniProt Q13153+P60953); assay: Inhibition of human PAK1/CDC42 assessed as residual activity at 1 uM relative to control; format: protein-complex assay
[30] = target: Misshapen-like kinase 1 (Homo sapiens) (UniProt Q8N4C8); assay: Inhibition of human MINK1 assessed as residual activity at 1 uM relative to control
[31] = target: MAP kinase-activated protein kinase 2 (Homo sapiens) (UniProt P49137); assay: Inhibition of human MAPKAPK2 assessed as residual activity at 1 uM relative to control
[32] = target: Death-associated protein kinase 1 (Homo sapiens) (UniProt P53355); assay: Inhibition of human DAPK1 assessed as residual activity at 1 uM relative to control
[33] = target: Serine/threonine-protein kinase Chk1 (Homo sapiens) (UniProt O14757); assay: Inhibition of human CHK1 assessed as residual activity at 1 uM relative to control
[34] = target: Calcium/calmodulin-dependent protein kinase type IV (Homo sapiens) (UniProt Q16566); assay: Inhibition of human CAMK4 assessed as residual activity at 1 uM relative to control
[35] = species on record: Homo sapiens; assay: Inhibition of human AMPKalpha2/beta1/gamma1 assessed as residual activity at 1 uM relative to control
[36] = test system: HEK-Blue hNOD1; assay: Anti-inflammatory activity in HEK-Blue hNOD1 cells assessed as reduction in C12-iE-DAP stimulated IL-8 secretion at 0.001 to 1 uM preincubated for 1 hr followed by C12-iE-DAP addition and measured after 22 hrs by fluorescence based analysis; format: functional, cell-based; conditions: Homo sapiens, dose 0.001-1 µM, time 23.0 hrs

- Activity [1]: > 60%
- Activity [2]: > 60%
- Activity [3]: > 60%
- Activity [4]: > 60%
- Activity [5]: > 60%
- Activity [6]: 20%
- Activity [7]: < 20%
- Activity [8]: > 60%
- Activity [9]: < 20%
- Activity [10]: > 60%
- Activity [11]: > 60%
- Activity [12]: > 60%
- Activity [13]: > 60%
- Activity [14]: < 20%
- Activity [15]: > 60%
- Activity [16]: > 60%
- Activity [17]: 20%
- Activity [18]: > 60%
- Activity [19]: > 60%
- Activity [20]: > 60%
- Activity [21]: > 60%
- Activity [22]: > 60%
- Activity [23]: > 60%
- Activity [24]: > 60%
- Activity [25]: > 60%
- Activity [26]: > 60%
- Activity [27]: > 60%
- Activity [28]: > 60%
- Activity [29]: > 60%
- Activity [30]: > 60%
- Activity [31]: > 60%
- Activity [33]: > 60%
- Activity [34]: > 60%
- Activity [35]: > 60%
SMILES: CCN(CC)CCOc1cc2ncnc(Nc3cc(OC)c(Cl)cc3Cl)c2cc1OC
- Activity [32]: > 60%
- Activity [36]: Active

Activity calls are given as the source filed them. The calls are words filed in the database; no cut-off is given here.
